Measured values as given in patent EP4831165A1, “NOVEL SULFONAMIDE DERIVATIVE” (dated 2026).

Tested on: nuclear localization of Smad2/3 induced by TGF-β stimulation in TWNT-4 human hepatic stellate cell line
Experiment: Smad2/3 nuclear localization inhibitory effect (immunofluorescence imaging)
Details: read-out: EC50; 50% nuclear localization inhibitory concentration; TWNT-4 cells, 1 ng/mL TGF-β1, 24 hours; 100% = TGF-β-treated group without compound, 0% = 10 µM SB431542
Procedure: TWNT-4 human hepatic stellate cell line was suspended in Dulbecco's modified Eagle's medium (DMEM) containing 10% fetal bovine serum (FBS), seeded onto a 96-well plate at a density of 1×10^3 cells/well, and cultured at 37°C in the presence of 5% CO2 for 24 hours. The compounds of the present invention were dissolved in dimethyl sulfoxide to a concentration of 1 mM, and further diluted with dimethyl sulfoxide and 5% FBS-DMEM so that the final concentrations of the compounds of the present invention were 5000, 1667, 556, 185, 62, 21, 7, and 2 nM, respectively. The medium for the TWNT-4 cells was removed, and 0.1 mL of 1 ng/mL TGF-β1 (Peprotech) was added to each well, followed by culturing for 24 hours. Thereafter, the medium was removed, and the cells were fixed with 4% paraformaldehyde, and washed with phosphate buffered saline (PBS). Blocking was carried out for 30 minutes with PBS containing 2% bovine serum albumin and 0.1% Triton X-100, and the sections were reacted overnight at 4°C with anti-Smad2/3 antibody (Cell Signaling Technology) diluted 1/4000 in the same blocking solution. After the reaction, the plate was washed three times with PBS containing Tween-20 (PBS-T), and then an anti-rabbit immunoglobulin antibody fluorescently labeled with Alexa Fluor 647 (Thermo Fisher Scientific) and the nuclear stain Hoechst 33342 (Dojindo Chemical Industries) were each diluted 1/4000 in blocking solution, and the plate was allowed to react at room temperature for 1 hour. After the reaction was completed, the cells were washed three times with PBS-T and replaced with PBS, and then stained images were obtained using a fluorescence microscope (CellInsight CX5, manufactured by Thermo Fisher Scientific). From the acquired stained images, the nuclear Smad2/3 fluorescence intensity and the cytoplasmic Smad2/3 fluorescence intensity were quantified using analysis software (HCS Studio, manufactured by Thermo Fisher Scientific), and the nuclear localization ratio of Smad2/3 was calculated from the ratio. The 50% nuclear localization inhibitory concentration (EC50 (nM)) was calculated by the least squares method, setting the nuclear localization rate of the TGF-β-treated group without compound treatment as 100% and the TGF-β-treated group with 10 µM of the ALK5 inhibitor SB431542 (Sigma) set as 0%.

| IC50 | Compound |
| --- | --- |
| 304 nM | Cc1ccc(S(=O)(=O)N(c2ccc3oc(=O)c(-c4ccccc4C)cc3c2)S(=O)(=O)N(C)CC2CC2)cc1 |
| 38 nM | CCCCc1ccc(S(=O)(=O)N(c2ccc3oc(=O)c(-c4ccccc4Cl)cc3c2)S(=O)(=O)c2ccc(C)cc2)cc1 |
| 596 nM | Cc1ccc(S(=O)(=O)N(c2ccc3oc(=O)c(Cc4ccccc4O)cc3c2)S(=O)(=O)c2ccc(C)cc2)cc1 |
| 29 nM | Cc1ccc(S(=O)(=O)N(c2ccc3oc(=O)c(-c4ccccc4Cl)cc3c2)S(=O)(=O)c2ccc(C)cc2)cc1 |
| 566 nM | Cc1ccc(S(=O)(=O)N(c2ccc3oc(=O)c(/C=C/c4ccccc4)cc3c2)S(=O)(=O)c2ccc(C)cc2)cc1 |
| 142 nM | Cc1ccc(S(=O)(=O)N(c2ccc3oc(=O)c(-c4ccccc4C)cc3c2)S(=O)(=O)N(C)CCc2ccccc2)cc1 |
| 46 nM | CCCCc1ccc(S(=O)(=O)N(c2ccc3c(c2)C=C(c2ccccc2)S(=O)(=O)O3)S(=O)(=O)c2ccc(C)cc2)cc1 |
| 107 nM | CNc1ccc(-c2cc3cc(N(S(=O)(=O)c4ccc(C)cc4)S(=O)(=O)c4ccc(C)cc4)ccc3oc2=O)cc1 |
| 47 nM | Cc1ccc(S(=O)(=O)N(c2ccc3oc(=O)c(-c4ccccc4C)cc3c2)S(=O)(=O)c2ccc(C)cc2)cc1 |
| 334 nM | Cc1ccc(S(=O)(=O)N(c2ccc3oc(=O)c(-c4ccccc4C)cc3c2)S(=O)(=O)c2ccc(N(C)C(=O)OCCC[C@H](N)C(=O)O)cc2)cc1 |
| 211 nM | Cc1ccc(S(=O)(=O)N(c2ccc3oc(=O)c(-c4ccccc4C)cc3c2)S(=O)(=O)c2cccc3c(N(C)C)cccc23)cc1 |
| 80 nM | Cc1ccc(S(=O)(=O)N(c2ccc3oc(=O)c(-c4ccccc4C)cc3c2)S(=O)(=O)c2ccc(CN3CCCCC3)cc2)cc1 |
| 37 nM | Cc1ccc(S(=O)(=O)N(c2ccc3c(c2)C=C(c2ccccc2)S(=O)(=O)O3)S(=O)(=O)c2ccc(C)cc2)cc1 |
| 97 nM | CCCc1ccc(-c2cc3cc(N(S(=O)(=O)c4ccc(C)cc4)S(=O)(=O)c4ccc(C)cc4)ccc3oc2=O)cc1 |
| 64 nM | CCCCc1ccc(S(=O)(=O)N(c2ccc3oc(=O)c(-c4ccc(Cl)cc4)cc3c2)S(=O)(=O)c2ccc(C)cc2)cc1 |
| 51 nM | Cc1ccc(-c2cc3cc(N(S(=O)(=O)c4ccc(C)cc4)S(=O)(=O)c4ccc(C)cc4)ccc3oc2=O)cc1 |
| 143 nM | CCCCOc1ccccc1Cc1cc2cc(N(S(=O)(=O)c3ccc(C)cc3)S(=O)(=O)c3ccc(C)cc3)ccc2oc1=O |
| 148 nM | Cc1ccc(S(=O)(=O)N(c2ccc3oc(=O)c(CC4CCCCC4)cc3c2)S(=O)(=O)c2ccc(C)cc2)cc1 |
| 72 nM | COC(=O)N(C)c1ccc(S(=O)(=O)N(c2ccc3oc(=O)c(-c4ccccc4C)cc3c2)S(=O)(=O)c2ccc(C)cc2)cc1 |
| 757 nM | Cc1ccc(S(=O)(=O)N(c2ccc3oc(=O)c(-c4ccccc4C)cc3c2)S(=O)(=O)N2CCOCC2)cc1 |
| 47 nM | CCCCc1ccc(S(=O)(=O)N(c2ccc3oc(=O)c(-c4ccccc4C)cc3c2)S(=O)(=O)c2ccc(C)cc2)cc1 |
| 564 nM | Cc1ccc(S(=O)(=O)N(c2ccc3oc(=O)c(-c4ccccc4C)cc3c2)C(C)C)cc1 |
